# Test results from publication PMC2852246 (Journal of nuclear medicine : official publication, Society …, 2010).
# “And” between values parts separate entries of the source, which are not always exact repeats. Identical values can stand only once.
# What was measured:
# [1] = Plasma clearance in healthy volunteers, single-injection two-compartment model; format: in vivo, human; settings: this study
# [2] = blood pressure, heart rate, temperature, blood cell count, chemistry panel, urine analysis; coinjected with 131I-OIH
# [3] = Percentage uptake in erythrocytes; format: in vitro ADME, human; settings: healthy volunteers, no correction for trapped plasma, mean ± SD
# [4] = Renal imaging and renogram parameters
# [5] = healthy volunteers, equation developed for 99mTc-MAG3
# [6] = cited from earlier work
# [7] = Sprague-Dawley rats; cited from earlier work
# [8] = Plasma protein binding by ultracentrifugation; format: in vitro ADME, human; settings: healthy volunteers, mean ± SD
# [9] = Percentage injected dose in the urine of healthy volunteers
# [10] = cortical (parenchymal) region of interest, left kidney, n = 9
# [11] = cortical (parenchymal) region of interest, right kidney, n = 9
# [12] = whole-kidney region of interest, n = 9, mean (SD)
# [13] = whole-kidney region of interest, relative uptake, n = 9, mean (SD)
substance,measurement,setting,value
^99mTc(CO)3-nitrilotriacetic acid [^99mTc(CO)3(NTA)],plasma clearance as percentage of the 131I-OIH clearance,[1],100%
same,toxicity in volunteers,[2],no evidence of any toxicity
same,red cell uptake,[3],9 ± 6%
same,Left cortical TTP,[4]; [10],2.52 ± 0.51 min
same,Left cortical TTP (min),[4]; [10],2.52 (0.51) min
same,Right cortical TTP,[4]; [11],2.60 ± 0.60 min
same,Right cortical TTP (min),[4]; [11],2.6 (0.6) min
same,cortical 20 min/max,"[4]; healthy volunteers, kidney side not specified",0.13
same,Left kidney 20 min/max,"[4]; whole-kidney region of interest, 20 min-to-maximum count ratio, n = 9, mean (SD)",0.15 (0.04)
same,Right kidney 20 min/max,[4]; [12],0.16 (0.04)
same,Right kidney TTP (min),[4]; [12],3.4 (1.9) min
same,Left kidney Uptake %,[4]; [13],49.8 ± 3.4% and 49.8 (3.4) %
same,Right kidney Uptake %,[4]; [13],50.2 (3.4) %
same,Left kidney TTP (min),"[4]; whole-kidney region of interest, time to peak of renogram, n = 9, mean (SD)",3.3 (1.6) min
same,camera-based clearance,[5],456 ± 130 mL/min/1.73 m^2
same,stability of the complex,[6],stable complex
same,pharmacokinetics in rats compared with 131I-OIH,[7],essentially identical to those of ^131I ortho-iodohippuran
same,plasma protein binding,[8],43 ± 5%
same,percent injected dose in the urine at 30 min,[9]; 30 min after injection,69 ± 9%
same,percent injected dose in the urine at 180 min (3 h),[9]; 180 min after injection,91 ± 4%
